# Assay results from PubChem BioAssay AID1359 (The Scripps Research Institute Molecular Screening Center, 2008).
# Protein sequences, listed by entry. Tags and fused reporters are not part of them.
# UniProt P49146, whole entry, looked up: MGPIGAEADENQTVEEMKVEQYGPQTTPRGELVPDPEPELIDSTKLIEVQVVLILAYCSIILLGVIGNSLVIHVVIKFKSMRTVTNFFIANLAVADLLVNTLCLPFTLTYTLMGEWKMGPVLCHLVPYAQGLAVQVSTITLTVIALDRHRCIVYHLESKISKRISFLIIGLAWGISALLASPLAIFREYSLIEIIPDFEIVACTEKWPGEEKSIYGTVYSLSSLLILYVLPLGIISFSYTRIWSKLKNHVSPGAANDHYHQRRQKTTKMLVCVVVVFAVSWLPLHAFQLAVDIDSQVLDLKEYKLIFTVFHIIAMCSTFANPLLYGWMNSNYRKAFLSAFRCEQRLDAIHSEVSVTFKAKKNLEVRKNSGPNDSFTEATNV
# This is a selection; strong and weak results do not stand in their true shares. Calls of active or inactive are those of the source. Cut-off read from the data, not from the text of the source: active = activation above about 27%; inactive = the rest.
# Target: Neuropeptide Y receptor type 2 (Homo sapiens) (UniProt P49146)
# Assay: human Y2 receptor positive modulation or activation – cell-based, primary screen (AID 1359);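 note: cells stimulated with NPY near EC25 plus isoproterenol at EC100; 0% = vehicle plus submaximal agonist and 100% = vehicle plus saturating agonist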
# Settings: cells expressing NPY-Y2, potentiator/agonist read-out; at 3.6 µM; hits give high values
row,SMILES,activation
1,Cc1cccc(OCC(=O)OC2CN3CCC2CC3)c1 (configuration not stated),inactive: -17.7%
2,O=[As](O)(c1cccc(O)c1)c1cccc(O)c1,inactive: 2.75%
3,O=C(OC1CN2CCC1CC2)c1ccc(Cl)cc1 (configuration not stated),inactive: -0.34%
4,O=[As](O)(O)c1cccnc1,inactive: 5.63%
5,COc1cc(C(=O)NCC2(N3CCOCC3)CCCCC2)cc(Cl)c1OC(C)C,inactive: 11.6%
6,CCOP(=O)(Nc1cccc2ccccc12)OCC,inactive: -0.04%
7,COc1cc(C2NCCC3(OCCO3)C2(C)C)cc(OC)c1OC (configuration not stated),inactive: 8.44%
8,Cc1ccc(NCCc2c([N+](=O)[O-])cc([N+](=O)[O-])cc2[N+](=O)[O-])cc1,inactive: 22.8%
9,Nc1cccc2c([As](=O)(O)O)cccc12,inactive: 5.27%
10,CCCOP(=S)(Nc1nc(N)cc(=O)[nH]1)OCCC,inactive: -13.4%
11,O=C(O)COc1ccc([As](=O)(O)O)cc1[N+](=O)[O-],inactive: -7.23%
12,Nc1ccccc1[As](=O)(O)c1ccccc1,inactive: -4.19%
13,O=P(Nc1nccs1)(Oc1ccccc1)Oc1ccccc1,inactive: -4.45%
14,O=P(Nc1nccs1)(c1ccccc1)c1nc2ccccc2s1 (configuration not stated),inactive: -9.47%
15,CCOP1(=S)c2c(C)nn(CCC#N)c2N=C(c2ccccc2F)N1C (configuration not stated),inactive: 0.21%
16,CS(=O)(=O)c1cc([N+](=O)[O-])c2no[n+]([O-])c2c1,inactive: -12.8%
17,CCOP1(=S)c2c(C)nn(CCC#N)c2N=C(c2ccc(F)cc2)N1C (configuration not stated),inactive: 8.29%
18,O=[N+]([O-])c1ccc2c(c1)nnn2O,inactive: 4.57%
19,CN(C)C1(CNC(=O)c2ccc(S(C)(=O)=O)cc2)CCCCC1,inactive: -11.6%
20,O=C(/C=C/c1ccccc1)OC1CN2CCC1CC2 (configuration not stated),inactive: -25.6%
21,CC1CCC(C(C)C)C(OP(=O)(Nc2ccccn2)c2ccccc2)C1 (configuration not stated),inactive: 7.15%
22,Cc1nn(-c2ccccc2)c2c1P(=O)(N1CCOCC1)N(C)C(c1ccccc1)=N2 (configuration not stated),inactive: -5.5%
23,Nc1cccc([As](=O)(O)c2ccccc2)c1,inactive: 2.44%
24,Cc1ccc(OCC(=O)OC2CN3CCC2CC3)cc1 (configuration not stated),inactive: 9.35%
25,O=[As](O)(c1cccs1)c1cccs1,inactive: 4.67%
26,O=P1(Nc2ccc(Br)cn2)COc2ccccc2OC1,inactive: 10.6%

row,SMILES,activation
1,O=P1(Nc2ncccn2)COc2ccccc2OC1,inactive: -3.81%
2,CC(C)(C)C(=O)NC(Sc1ncccn1)C(Cl)(Cl)Cl (configuration not stated),inactive: 2.9%
3,Clc1n[nH]nc1-c1nn[nH][15n]1,inactive: 1.4%
4,O=P1(Nc2ccccn2)COc2ccccc2OC1,inactive: 5.3%
5,CCOP(=O)(Nc1ccc(C)cn1)OCC,inactive: -10.7%
6,CN(C(=O)Cc1ccc(Cl)c(Cl)c1)[C@@H]1CCCC[C@H]1N1CCCC1,inactive: 3.26%
7,CC(C)/C=N\N=C(\N)N[N+](=O)[O-],inactive: -5.39%
8,CC1(CBr)Cn2c(nc3ccccc3c2=O)S1 (configuration not stated),inactive: -16.1%
9,O=[As](O)(c1ccccc1Br)c1ccccc1Br,inactive: 4.37%
10,O=C(COc1ccccc1)OC1CN2CCC1CC2 (configuration not stated),inactive: -5.23%
11,COP1(=S)c2c(C)nn(CCC#N)c2N=C(c2ccc(F)cc2)N1C (configuration not stated),inactive: -1.16%
12,CCC(C)N(CC(C)C)C(=S)SC(NC(C)=O)C(Cl)(Cl)Cl (configuration not stated),inactive: -7.78%
13,CCOC(=O)c1ccc(NC(=O)C(C)(CCl)SC)cc1 (configuration not stated),inactive: 4.97%
14,Cc1cc(SC(NC(=O)c2ccccc2)C(Cl)(Cl)Cl)nc(C(C)C)n1 (configuration not stated),inactive: -5.33%
15,CCOC(=O)Nc1ccc([As](=O)(O)O)c(O)c1,inactive: -13.2%
16,Cc1cc(SC(NC=O)C(Cl)(Cl)Cl)ncn1 (configuration not stated),inactive: 5.21%
17,O=P(Nc1ccccn1)(c1cccc2ccccc12)c1cccc2ccccc12,inactive: 13.1%
18,O=[N+]([O-])c1ccc(Nc2ccc(Oc3ccc([N+](=O)[O-])cc3[N+](=O)[O-])cc2)c([N+](=O)[O-])c1,inactive: 19.6%
19,CCOC(=O)Nc1cccc([As](=O)(O)O)c1,inactive: 8.86%
20,Cc1ccc(OP(=O)(Nc2ccc([N+](=O)[O-])cn2)Oc2ccc(C)cc2)cc1,inactive: -7.41%
21,Cc1ccc2nc3c(c(C)c2c1)CC(C(Cl)Cl)S3 (configuration not stated),inactive: -8.01%
22,O=[As](O)(c1ccc(O)cc1)c1ccccc1O,inactive: -1.02%
23,C[As](=O)(O)c1cccc(C(=O)O)c1,inactive: 3.88%
24,O=[N+]([O-])c1cc([N+](=O)[O-])c(-c2ccn[nH]2)s1,inactive: 4.91%
25,CC(C)NC(=O)NP(=O)(Oc1ccccc1)Oc1ccccc1,inactive: -2.31%
26,CCN(CC)C(=S)SC(NC=O)C(Cl)(Cl)Cl (configuration not stated),inactive: 6.62%
